Experimental data from patent US12173004B2, “Pharmaceutical compositions comprising heterocycle fused gamma carboline prodrugs” (INTRA-CELLULAR THERAPIES, INC., priority 2017, dated 2024).

System: male Sprague-Dawley rats
Assay: Rat Tolerance/Dependence Study (28 day)

With `O=C1CN2c3c(cccc3[C@@H]3CN(CCCOc4ccc(F)cc4)CC[C@@H]32)N1` [Example 2, (6bR,10aS)-8-(3-(4-fluorophenoxy)propyl)-6b,7,8,9,10,10a-hexahydro-1H-pyrido[3′,4′:4,5]pyrrolo[1,2,3-de]quinoxalin-2(3H)-one] the “effect on animal body weight, food and water intake or body temperature” value (both doses (0.3 and 3 mg/kg s.c.), on-dose or withdrawal phase) was “no significant effect”, the “main behavioral and physical signs” value (higher dose (3 mg/kg)) was “hunched posture, subdued behavior, Straub tail, tail rattle and piloerection” and the “predominant behavioral and physical effects, dosing phase” value (repeated administration at 0.3 mg/kg) was “hunched posture, Straub tail and piloerection”.
